Experimental data from patent US8674113B2, “Compounds” (Boehringer Ingelheim International GmbH, priority 2010, dated 2014).

Chains of the proteins cited; added tags and fusions are not shown. Lines headed by an entry give the natural chain unless they say otherwise; changes in a name come on top.
UniProt O14684: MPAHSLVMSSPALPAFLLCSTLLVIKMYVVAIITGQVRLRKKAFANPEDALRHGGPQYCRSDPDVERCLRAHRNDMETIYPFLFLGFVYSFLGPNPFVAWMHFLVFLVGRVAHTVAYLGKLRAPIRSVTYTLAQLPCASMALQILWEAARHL

Assays:
mPGES-1 in A549 cells = mPGES-1 in A549 cells (Homo sapiens (Human), UniProt O14684); experiment: A549 cell-based assay (PGE2 formation, 50% human serum); conditions: IL-1β 5 ng/ml, 10 nM arachidonic acid, 20-24 h, read-out: mPGES-1 inhibitory effect IC50 in the cell assay
Method: Although the enzymatic assay is a high throughput assay the disadvantage is that it uses a recombinant protein which is not in its natural environment. Accordingly a cellular assay was established in which a cell line of human origin (A549) expressing the mPGES-1 protein was used. In addition in order to mimic the situation in humans in which compounds can be bound to plasma proteins 50% human serum is added in the assay. By having the combination of testing mPGES-1 in a cellular environment and the presence of 50% human serum this assay has a higher relevance to judge the therapeutic potential of a mPGES-inhibitor than the pure enzyme assay.
A549 cells (ATCC: CCL-185) are grown to about 90% confluence in F-12K Nutrient Mixture (Kaighn's Mod. Gibco) containing 10% FBS in a humified incubator at 37° C. and 5% CO2. Cells were detached using Trypsin-EDTA. A549 cells were seeded in a 384-well collagene plate at a density of 7000 cells/well (50 μl) in F-12 medium containing 1% Penicillin-Streptomycin and 50% human serum. The cells were allowed to attach for 3-4 h. […]
Concentrations of PGE2 in the cell free medium (10 μl) were measured using a commercially available HTRF kit from Cisbio (as described above). […]

[1] = target: recombinant human mPGES-1 (Homo sapiens (Human), UniProt O14684); experiment: mPGES-1 enzyme assay (HTRF detection of PGE2); format: biochemical; conditions: recombinant human mPGES-1 microsomes, PGH2 2 μM, 60 seconds; read-out: mPGES-1 inhibitory effect IC50 in the enzyme assay
Method: Microsomes from Rosetta E. coli bacteria expressing recombinant human mPGES-1 can be derived as described below:
Inoculate 5 ml LB with Ampicilin (50 μg/ml) and Chloramphenicol (34 μg/ml) with bacteria from freeze culture. Incubate 8 h at 37° C. with 200 rpm. Thereafter, inoculate 500-1000 ml LB containing Amp and Chloro with the 5 ml on culture and grow to OD640 of 0.8-1.0. Chill the culture to +4° C. before induction. Induce the culture with IPTG at a final concentration of 400 μM. Express the protein at room temp 18-23° C. with 200 rpm shaking over night.
The following steps can be performed on the following day: • 1. […]
47 μl of recombinant human mPGES-1 (˜0.5 μg protein/well) containing microsomal suspension in a buffer containing GSH, (2.5 mmol/L L-Glutathione reduced, dissolved in 0.1 mol/L Phosphat Buffer pH 7.4) is dispensed in a 384-well plate and thereafter 1 μl of the test compound(s) is/are added and incubated for 25 minutes at room temperature. […] In order to quantify the amount of PGE2 that has been formed, a homogenous time resolved fluorescent (HTRF) detecting of PGE2 has been performed using a commercially available kit from Cisbio according to the manufactures recommendation. […] After an incubation period of the plates over night, the fluorescence is measured by the use of an appropriate microplate reader. […]

IC50 (mPGES-1 in A549 cells): 3 nM
IC50 [1]: 3 nM
SMILES: Cn1c(Nc2c(Cl)ccc(CNC(=O)C(C)(C)C)c2Cl)nc2cc(C(=O)N[C@H]3CC[C@H](C(F)(F)F)CC3)c(N3CC(F)C3)cc21 [Example 97]
